Where two headings read alike, the source gives them in different places.
Tested on: ICR (male, female) mouse
Conditions: oral, 14 days
Protocol: Five weeks aged ICR (male, female) mouse were pre-bred in the breeding cage for one week and then the animals showing a smooth gain in body weight were randomly selected and used in this test. The amount to be administered to the test animals was established on the basis of the maximum dose of 5,000 mg/kg with the common ratio of 1.5.
The test compounds in a powder were suspended in 0.5% methylcellulose and administered per oral using a lml syringe. The other specific conditions for administration are described in the following.
In the above test, the control group received only 0.5% methylcellulose.
(1) Clinical symptoms and death of test animals
The clinical symptoms and death of test animals caused by the test compounds were recorded immediately after administration of the test compounds and during the overall test period.

Measured: Lethality

COc1ccc2[nH]c([S+]([O-])Cc3ncc(C)c(OC)c3C)nc2c1 (stereo not drawn) [Omeprazole, 5-methoxy-2-[[(4-methoxy-3,5-dimethyl-2-pyridinyl)methyl]sulfinyl]-1H-benzimidazole]
0/5: female mouse, 987 mg/kg | female mouse, 1481 mg/kg | female mouse, 2222 mg/kg | female mouse, 3333 mg/kg | female mouse, 5000 mg/kg | male mouse, 1481 mg/kg | male mouse, 2222 mg/kg | male mouse, 3333 mg/kg | male mouse, 5000 mg/kg
